In patent US7141603B2, “Antitumor agents” (The Regents of The University California, priority 1999, dated 2006):

Legend:
[1] = Tolerated dose / toxicity on administration; conditions: in vivo
Excerpt: As one skilled in the art would recognize, the amount can be varied depending on the method of administration.

[2] = system: MV522 lung carcinoma xenograft; assay: Test B in vivo MV522 lung carcinoma xenograft; conditions: daily IP for 5 consecutive days, MV522 xenograft mice
Excerpt: Several representative compounds of the invention were chosen for in vivo studies. […] Drug therapy was started 10 days after inoculation on a daily basis via IP route for 5 consecutive days. The animals were monitored for 3 weeks after start of therapy.
BALB/c nu/nu 4-week old female mice weighing 18–22 g were obtained from Simonsen, Inc. (Gilroy, Calif.) and maintained in the athymic mouse colony of the University of California (San Diego, Calif.) under pathogen free conditions using HEPA filter hoods. Animals were provided with sterilized food and water ad libitum in groups of 5 in plastic cages vented with polyester fiber filter covers. […]
Each animal was earmarked and followed individually throughout the experiments. […] The effect of the compound on life span was calculated from median survival.
Although MV522 cells kill mice by metastases, primary s.c. tumor growth over the shoulder was monitored starting on the first day of treatment and at weekly intervals thereafter. Tumor size was measured in two perpendicular diameters. […] Relative weights (RW) were calculated to standardized variability in tumor size among test groups at initiation of treatment using the formula RW=Wt/wi, where Wi is the tumor weight for a given animal at beginning of drug treatment and Wt is tumor weight at a subsequent time. […]

Substance	maximum tolerated dose [1]	MTD reached in Test B [2]
Illudin S [reference compound]	about 250 ug/kg	
mitomycin C [reference compound]		reached
